Assay results from article PMC10884005, “Euglena’s atypical respiratory chain adapts to the discoidal cristae and flexible metabolism” (Nature Communications, 2024).

Sequences of proteins named here, by UniProt entry; tags and fusion partners are left off. A change or cut given only in a name is not applied to a line headed by its entry.
UniProt Q34463: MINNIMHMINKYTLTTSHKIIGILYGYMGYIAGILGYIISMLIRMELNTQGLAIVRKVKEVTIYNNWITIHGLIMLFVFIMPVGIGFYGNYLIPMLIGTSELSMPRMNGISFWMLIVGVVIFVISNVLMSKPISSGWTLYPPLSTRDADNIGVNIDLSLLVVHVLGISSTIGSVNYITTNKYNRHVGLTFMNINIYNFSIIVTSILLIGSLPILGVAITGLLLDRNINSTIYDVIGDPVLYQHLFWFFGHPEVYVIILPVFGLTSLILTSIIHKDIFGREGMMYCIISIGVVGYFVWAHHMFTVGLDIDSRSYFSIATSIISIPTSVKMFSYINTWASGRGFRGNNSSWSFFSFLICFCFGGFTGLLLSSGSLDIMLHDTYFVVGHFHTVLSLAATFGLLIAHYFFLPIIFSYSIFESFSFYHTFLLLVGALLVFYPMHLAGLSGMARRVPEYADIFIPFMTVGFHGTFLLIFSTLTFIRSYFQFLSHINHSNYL

Target: Eg-CIV in Eg-SC I + III2 + IV (Euglena gracilis, UniProt Q34463)
Assay: Eg-cyt c re-oxidation at […] nm
Conditions: 10 nM Eg-SC I + III2 + IV, 20 μM DQ, 100 μM Eg-cyt c, 250 μM NADH, pH 7.4, room temperature

`[N-]=[N+]=N` was tested, and the “inhibition at 100 mM” value was “CIV inhibitor sodium azide specifically inhibited Eg-cyt c re-oxidation”.
